IC50 data for 13 molecules are collected here from patent US8759366B2, “Aminopyrimidines as SYK inhibitors” (Merck Sharp & Dohme Corp., priority 2009, dated 2014).

The target of test [1] is recombinant human SYK (GST-hSYK fusion protein) (Homo sapiens (Human), UniProt P43405).
Another test deals with rhSYK (Homo sapiens (Human), UniProt P43405).

The structures appear in SMILES notation. Read-outs that look alike come from different tables or passages of the source.

A word on the IC50: it is the point on the concentration scale where inhibition reaches its midpoint. As for `CCCNC(=O)N1CCCC(O)(c2ncc(-c3cc(C)cc(Nc4nccc(C(F)(F)F)n4)c3)s2)CC1` (stereo not shown), the IC50 in test [1] was < 100 nM.

`CNC(=O)N1CCCC(O)(c2ncc(-c3cc(C)cc(Nc4nccc(C(F)(F)F)n4)c3)s2)CC1` (single isomer, unassigned): the IC50 in test [1] is < 100 nM.

`Cc1cc(Nc2nccc(C(F)(F)F)n2)cc(-c2cnc(C(C)(C)S(=O)(=O)NCC(N)=O)s2)c1`: the IC50 in test [1] was < 100 nM.

In the case of `CC(=O)NS(=O)(=O)c1ccc(C(C)(O)c2ncc(-c3cc(C)cc(Nc4nccc(C(F)(F)F)n4)c3)s2)cc1` (stereo not shown), the IC50 against rhSYK (tested form: TFA) was < 100 nM.

On to `C=CCNC(=O)N1CCCC(O)(c2ncc(-c3cc(C)cc(Nc4nccc(C(F)(F)F)n4)c3)s2)CC1` (stereo not shown), for which, in test [1] (tested form: TFA), the IC50 was < 100 nM.

As for `Cc1cc(Nc2nccc(C(F)(F)F)n2)cc(-c2cnc(C(O)(Cc3ccc(C(=O)O)cc3)c3ccccc3)s2)c1` (stereo not shown), the IC50 on rhSYK was < 100 nM.

As for `Cc1cc(Nc2nccc(C(F)(F)F)n2)cc(-c2cnc(C3(O)CCCN(C(=O)NC(C)C)CC3)s2)c1` (stereo not shown), the IC50 in test [1] is < 100 nM.

For the molecule `Cc1cc(Nc2nccc(OC(C)C)n2)cc(-c2cnc([C@]3(O)CC[C@@H](C(N)=O)CC3)s2)c1` (relative stereo), the IC50 in test [1] is < 100 nM.

Turning to `CCOC(=O)CNC(=O)N1CCCC(O)(c2ncc(-c3cc(C)cc(Nc4nccc(C(F)(F)F)n4)c3)s2)CC1` (stereo not shown), the IC50 in test [1] is < 100 nM.

On to `COc1nc(Nc2cc(C)cc(-c3cnc(C4(O)CCCN(C(=O)OC(C)(C)C)CC4)s3)c2)ncc1Cl` (single isomer, unassigned), for which the IC50 in test [1] is 1000 to 10000 nM.

With `COc1nc(Nc2cc(C)cc(-c3cnc([C@@]4(O)CC[C@H](C(=O)O)[C@H](C)C4)s3)c2)ncc1F`, in test [1] (tested form: formate), the IC50 was < 100 nM.

With `COc1nc(Nc2cc(C)cc(-c3cnc([C@]4(O)CC[C@@H](C(=O)O)[C@@H](C)C4)s3)c2)ncc1F`, in test [1] (tested form: formate), the IC50 is < 100 nM.

As to `CCOC(=O)CCCNC(=O)N1CCCC(O)(c2ncc(-c3cc(C)cc(Nc4nccc(C(F)(F)F)n4)c3)s2)CC1` (stereo not shown), the IC50 in test [1] (tested form: TFA) is < 100 nM.
